Measurements published in ChEMBL document CHEMBL1123812, “Pyrroloisoquinoline antidepressants. 2. In-depth exploration of structure-activity relationships” (J Med Chem, 1987).

The chains behind the UniProt entries cited, without tags or fusion partners.
UniProt P31652, whole entry: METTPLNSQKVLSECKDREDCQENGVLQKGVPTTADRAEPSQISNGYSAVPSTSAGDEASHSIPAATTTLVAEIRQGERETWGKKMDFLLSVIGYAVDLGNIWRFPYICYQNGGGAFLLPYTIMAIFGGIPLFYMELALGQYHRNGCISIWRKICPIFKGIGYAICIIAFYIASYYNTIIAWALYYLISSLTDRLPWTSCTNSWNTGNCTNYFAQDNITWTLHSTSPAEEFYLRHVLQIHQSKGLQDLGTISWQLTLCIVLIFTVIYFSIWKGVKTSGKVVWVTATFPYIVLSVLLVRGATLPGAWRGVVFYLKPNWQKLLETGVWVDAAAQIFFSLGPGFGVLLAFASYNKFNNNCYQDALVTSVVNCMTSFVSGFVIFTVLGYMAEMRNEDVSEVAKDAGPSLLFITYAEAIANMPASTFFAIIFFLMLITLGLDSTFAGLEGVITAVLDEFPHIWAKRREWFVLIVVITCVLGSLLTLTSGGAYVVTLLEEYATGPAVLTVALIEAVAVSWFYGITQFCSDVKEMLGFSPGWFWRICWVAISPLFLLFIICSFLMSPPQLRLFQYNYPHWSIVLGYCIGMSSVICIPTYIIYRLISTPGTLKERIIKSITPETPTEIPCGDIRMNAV

target: Sodium-dependent serotonin transporter (Rattus norvegicus, UniProt P31652); experiment: Inhibition the uptake of tritiated serotonin (5-HT) by the serotonin transporter SERT in rat synaptosomes; assay type: subcellular, Brain

In order of falling Ki:
1. FC(F)(F)c1cccc([C@@H]2CN3CCC[C@@H]3c3ccccc32)c1 (stereo in doubt; (-)-37b)  2920 nM
2. c1ccc([C@@H]2CN3CC[C@H]3c3ccccc32)cc1  2190 nM
3. COc1cc2c(cc1OC)[C@H]1CCCN1C[C@H]2c1ccccc1  1540 nM
4. Br.O[C@@]1(c2ccccc2)CN2CCC[C@H]2c2ccccc21  863 nM
5. C[C@@]12CCCN1C[C@H](c1ccccc1)c1ccccc12  750 nM
6. Br.Oc1cccc([C@@H]2CN3CCC[C@H]3c3ccccc32)c1  624 nM
7. COc1cccc2c1[C@H](c1ccccc1)CN1CCC[C@H]21  455 nM
8. Br.Oc1ccccc1[C@@H]1CN2CCC[C@@H]2c2ccccc21  451 nM
9. c1ccc([C@H]2CN3CC[C@H]3c3ccccc32)cc1  428 nM
10. c1ccc([C@H]2CN3CCCC[C@H]3c3ccccc32)cc1  415 nM
11. Br.Oc1ccc([C@@H]2CN3CCC[C@H]3c3ccccc32)cc1O  331 nM
12. COc1ccc(NC(=O)Nc2ccc([C@@H]3CN4CCC[C@H]4c4ccccc43)cc2)cc1  323 nM
13. Clc1cccc2c1[C@H](c1ccccc1)CN1CCC[C@H]21  298 nM
14. O[C@]1(c2ccccc2)CN2CCC[C@H]2c2ccccc21  292 nM
15. Clc1ccc([C@@H]2CN3CCC[C@H]3c3cc(Cl)ccc32)cc1  234 nM
16. Br.c1ccc([C@H]2CN3CCC[C@H]3c3[nH]c4ccccc4c32)cc1  186 nM
17. CCN1Cc2ccccc2C(c2ccccc2)C1 (configuration not stated)  170 nM
18. Br.COc1cccc([C@@H]2CN3CCC[C@H]3c3ccccc32)c1  166 nM
19. O=C(Nc1ccccc1)Nc1ccc([C@@H]2CN3CCC[C@@H]3c3ccccc32)cc1  151 nM
20. Br.c1ccc2c(c1)[C@@H](C1CCCCC1)CN1CCC[C@@H]21  145 nM
21. Br.Oc1cc2c(cc1O)[C@H]1CCCN1C[C@H]2c1ccccc1  124 nM
22. FC(F)(F)c1cccc([C@@H]2CN3CCCC3c3cc(Cl)ccc32)c1 (some centres not stated)  119 nM
23. Br.Cn1ccc2c1[C@@H](c1ccccc1)CN1CCC[C@@H]21  111 nM
24. CCCCc1ccc([C@@H]2CN3CCC[C@@H]3c3ccccc32)cc1  110 nM
25. Br.COc1cc([C@@H]2CN3CCC[C@@H]3c3ccccc32)cc(OC)c1OC  100 nM
26. Br.Oc1ccc([C@@H]2CN3CCC[C@H]3c3ccccc32)cc1  100 nM
27. O=C(Nc1ccccc1)Nc1ccc([C@@H]2CN3CCC[C@H]3c3ccccc32)cc1  100 nM
28. Fc1cccc(Cl)c1[C@@H]1CN2CCC[C@@H]2c2ccccc21  72 nM
29. C[C@@]12CCCN1C[C@H](c1ccc(Cl)cc1)c1ccccc12  68 nM
30. Clc1ccc([C@@H]2CN3CCC[C@H]3c3ccccc32)cc1Cl  45.7 nM
31. Br.Nc1ccc([C@@H]2CN3CCC[C@@H]3c3ccccc32)cc1  44 nM
32. Br.c1csc([C@H]2CN3CCC[C@H]3c3ccsc32)c1  43.3 nM
33. Br.c1ccc([C@H]2CN3CCC[C@H]3c3ccsc32)cc1  37.9 nM
34. Br.Oc1ccc([C@@H]2CN3CCC[C@@H]3c3ccccc32)cc1O  33.1 nM
35. Br.C[C@]1(c2ccccc2)CN2CCC[C@H]2c2ccccc21  32.1 nM
36. Br.Oc1cccc([C@@H]2CN3CCC[C@@H]3c3ccccc32)c1  24.6 nM
37. Cc1ccccc1[C@@H]1CN2CCC[C@@H]2c2ccccc21  23.1 nM
38. FC(F)(F)c1cccc([C@@H]2CN3CCC[C@@H]3c3ccccc32)c1 (stereo in doubt; 37b)  23 nM
39. NC(=O)c1ccc([C@@H]2CN3CCC[C@@H]3c3ccccc32)cc1  19.1 nM
40. Br.COc1ccc([C@@H]2CN3CCC[C@H]3c3ccccc32)cc1  18.3 nM
41. Br.COc1ccc([C@@H]2CN3CCC[C@@H]3c3ccccc32)cc1OC  18.1 nM
42. FC(F)(F)c1ccc2c(c1)[C@H]1CCCN1C[C@H]2c1ccccc1  12.3 nM
43. COc1ccc2c(c1)CN(C)CC2c1ccc(Cl)c(Cl)c1 (configuration not stated) [DICLOFENSINE]  10.3 nM
44. FC(F)(F)c1cccc([C@@H]2CN3CCC[C@@H]3c3ccccc32)c1 (stereo in doubt; (+)-37b)  9.1 nM
45. Fc1ccc([C@@H]2CN3CCC[C@@H]3c3ccccc32)cc1  8.5 nM
46. Br.Clc1cccc([C@@H]2CN3CCC[C@@H]3c3ccccc32)c1  7.3 nM
47. COc1cccc([C@@H]2CN3CCC[C@@H]3c3ccccc32)c1  7.2 nM
48. Br.Brc1ccccc1[C@@H]1CN2CCC[C@@H]2c2ccccc21  5.5 nM
49. Br.O=[N+]([O-])c1ccc([C@@H]2CN3CCC[C@@H]3c3ccccc32)cc1  5.3 nM
50. FC(F)(F)c1ccc([C@@H]2CN3CCC[C@@H]3c3ccccc32)cc1  4.9 nM
51. Br.Clc1ccc2c(c1)[C@H]1CCCN1C[C@H]2c1ccccc1  4.8 nM
52. COc1ccc2c(c1)[C@H]1CCCN1C[C@H]2c1ccccc1  4.5 nM
53. Br.Fc1ccc([C@@H]2CN3CCC[C@@H]3c3cc(F)ccc32)cc1  4.4 nM
54. Br.Oc1ccc([C@@H]2CN3CCC[C@@H]3c3ccccc32)cc1  3.2 nM
55. Clc1ccc([C@@H]2CN3CCC[C@@H]3c3cc(Cl)ccc32)cc1  2.9 nM
56. Clc1ccc([C@@H]2CN3CCC[C@@H]3c3ccccc32)cc1Cl  1.8 nM
57. Br.COc1ccc([C@@H]2CN3CCC[C@@H]3c3ccccc32)cc1  1.7 nM
